{
  "source": "patent US10172905B1",
  "about": "“Treatment of protein degradation disorders” (President and Fellows of Harvard College, priority 2005, dated 2019)",
  "biological_target": "T1, HDAC6 (Homo sapiens, UniProt Q9UBN7)",
  "T1 sequence (Q9UBN7 1-1215)": "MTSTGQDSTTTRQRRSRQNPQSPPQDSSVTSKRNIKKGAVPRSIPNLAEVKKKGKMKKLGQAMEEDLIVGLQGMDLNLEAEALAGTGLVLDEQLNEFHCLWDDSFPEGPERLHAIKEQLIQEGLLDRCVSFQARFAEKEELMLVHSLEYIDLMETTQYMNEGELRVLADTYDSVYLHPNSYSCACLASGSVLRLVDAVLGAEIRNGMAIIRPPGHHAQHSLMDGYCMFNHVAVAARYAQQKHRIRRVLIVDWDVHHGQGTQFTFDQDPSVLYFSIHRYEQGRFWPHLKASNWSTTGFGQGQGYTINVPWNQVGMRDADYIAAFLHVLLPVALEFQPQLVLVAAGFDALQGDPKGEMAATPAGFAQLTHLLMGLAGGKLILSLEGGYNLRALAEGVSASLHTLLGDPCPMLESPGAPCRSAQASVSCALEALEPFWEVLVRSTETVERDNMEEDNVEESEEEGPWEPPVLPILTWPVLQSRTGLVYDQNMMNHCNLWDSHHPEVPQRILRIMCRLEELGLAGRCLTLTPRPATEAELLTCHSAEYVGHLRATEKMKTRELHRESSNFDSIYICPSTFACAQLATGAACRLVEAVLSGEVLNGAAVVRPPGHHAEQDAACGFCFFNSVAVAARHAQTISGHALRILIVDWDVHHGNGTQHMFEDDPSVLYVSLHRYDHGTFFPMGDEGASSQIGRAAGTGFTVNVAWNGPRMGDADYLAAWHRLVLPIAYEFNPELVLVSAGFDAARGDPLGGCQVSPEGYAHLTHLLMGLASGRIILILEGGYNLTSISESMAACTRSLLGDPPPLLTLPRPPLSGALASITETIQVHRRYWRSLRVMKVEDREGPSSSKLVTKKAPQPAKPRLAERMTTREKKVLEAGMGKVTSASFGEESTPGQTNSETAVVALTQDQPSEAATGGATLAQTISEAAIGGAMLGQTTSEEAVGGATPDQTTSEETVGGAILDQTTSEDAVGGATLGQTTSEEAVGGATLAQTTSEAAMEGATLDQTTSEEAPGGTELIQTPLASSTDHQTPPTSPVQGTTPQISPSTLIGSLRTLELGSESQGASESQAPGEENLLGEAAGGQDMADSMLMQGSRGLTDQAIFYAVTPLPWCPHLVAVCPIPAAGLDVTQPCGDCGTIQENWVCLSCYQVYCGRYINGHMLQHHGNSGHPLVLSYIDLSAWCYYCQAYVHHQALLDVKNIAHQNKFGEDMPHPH",
  "experiment": "Western blotting with anti-acetylated lysine / HDAC6 Abs",
  "format": "cell-based",
  "parameters": "MM.1S, U266, INA-6, RPMI8226, and RPMI-LR5 MM cell lines constitutively express HDAC6; endogenous in cells; host or cells: MM.1S, RPMI8226 and other MM cell lines; MM patient BMPCs/PBMCs",
  "details": "SAHA 2.5 and 5 μM, 24 h, MM.1S and RPMI8226 cells",
  "description": "MM cells were cultured with Velcade and/or Tubacin; harvested; washed; and lysed using lysis buffer: 50 mM Tris-HCl (pH 7.4), 150 mM NaCl, 1% NP-40, 5 mM EDTA, 5 mM NaF, 2 mM Na3VO4, 1 mM PMSF, 5 μg/ml leupeptine, and 5 μg/ml aprotinin. Cell lysates were subjected to SDS-PAGE, transferred to PVDF membrane (Bio-Rad Laboratories, Hercules, Calif.), and immunoblotted with Abs against specific proteins.\nCells cultured with tubacin and/or bortezomib were harvested; washed, and lysed using lysis buffer: 50 mM Tris-HCl (pH 7.4), 150 mM NaCl, 1% NP-40, 5 mM EDTA, 5 mM NaF, 1 mM Na3VO4, 1 mM PMSF, 5 μg/ml leupeptine, and 5 μg/ml aprotinin. Whole cell lysates were subjected to SDS-PAGE, transferred to nitrocellulose membrane (Bio-Rad Laboratories, Hercules, Calif.), and immunoblotted with specific Abs (31). Western blotting was done using anti-HDAC6, acetylated lysine, acetylated histone H3, acetylated histone H4, ubiquitin (Ub), phospho-SAPK (JNK), caspase-8 caspase-9, caspase-3, and PARP Abs (Cell Signaling, Beverly, Mass.); with anti-α-tubulin Ab (Santa Cruz Biotechnology, Santa Cruz, Calif.); as well as with anti-dynein Ab (Sigma, Saint Louis, Mo.). For immunoprecipitation, whole cell lysates were incubated with anti-Ub or dynein Abs overnight at 4° C., and then incubated with protein A/G PLUS-Agarose (Santa Cruz Biotechnology) for 2 h at 4° C., as in our prior study (31). […]",
  "note": "Entries after “also recorded” stand apart in the source; their conditions may differ.",
  "data": [
    {"compound": "O=C(CCCCCCC(=O)Nc1ccccc1)NO", "note": "[SAHA, reference compound]", "values": [
      {"measurement": "acetylation of lysine on histone H3 and H4", "value": "triggers more potent acetylation of lysine on histone H3 and H4 than α-tubulin; also recorded: markedly triggers acetylation of histones H3 and H4"}
    ]}
  ]
}
